From patent US8778957B2, “CGRP receptor antagonists” (Merck Sharp & Dohme Corp., priority 2009, dated 2014)

Amino acid sequences for entries named in this document (tags omitted). Residues count along the entry.
UniProt O60894, 27-148 limits assumed: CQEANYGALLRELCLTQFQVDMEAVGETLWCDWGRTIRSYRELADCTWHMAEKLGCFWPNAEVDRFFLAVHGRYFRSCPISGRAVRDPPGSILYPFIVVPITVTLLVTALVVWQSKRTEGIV
UniProt Q16602, 23-461 limits assumed: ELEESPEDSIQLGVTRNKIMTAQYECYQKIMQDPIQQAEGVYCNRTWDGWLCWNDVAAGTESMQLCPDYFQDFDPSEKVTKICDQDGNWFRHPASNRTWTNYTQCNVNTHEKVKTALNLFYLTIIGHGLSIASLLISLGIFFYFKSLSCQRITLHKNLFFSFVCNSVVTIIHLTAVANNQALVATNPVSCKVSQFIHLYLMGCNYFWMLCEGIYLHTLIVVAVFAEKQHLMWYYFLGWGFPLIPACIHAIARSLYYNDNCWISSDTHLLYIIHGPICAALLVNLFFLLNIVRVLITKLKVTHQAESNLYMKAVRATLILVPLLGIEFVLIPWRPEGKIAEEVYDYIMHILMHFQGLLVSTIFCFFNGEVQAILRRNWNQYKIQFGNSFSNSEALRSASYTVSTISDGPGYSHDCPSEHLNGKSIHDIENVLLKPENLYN

biological target: recombinant human CL receptor/RAMP1 (Homo sapiens (Human), UniProt O60894+Q16602); assay: Recombinant receptor binding assay (125I-hCGRP); conditions: membranes of HEK 293 cells expressing human CL receptor/RAMP1, 10 pM 125I-hCGRP
Protocol: RECOMBINANT RECEPTOR: Human CL receptor (Genbank accession number L76380) was subcloned into the expression vector pIREShyg2 (BD Biosciences Clontech) as a 5′NheI and 3′ PmeI fragment. Human RAMP 1 (Genbank accession number AJ001014) was subcloned into the expression vector pIRESpuro2 (BD Biosciences Clontech) as a 5′NheI and 3′NotI fragment. HEK 293 cells (human embryonic kidney cells; ATCC #CRL-1573) were cultured in DMEM with 4.5 g/L glucose, 1 mM sodium pyruvate and 2 mM glutamine supplemented with 10% fetal bovine serum (FBS), 100 units/mL penicillin and 100 μg/mL streptomycin, and maintained at 37° C. and 95% humidity. Cells were subcultured by treatment with 0.25% trypsin with 0.1% EDTA in HBSS. Stable cell line generation was accomplished by co-transfecting 10 μg of DNA with 30 μg Lipofectamine 2000 (Invitrogen) in 75 cm^2 flasks. CL receptor and RAMP1 expression constructs were co-transfected in equal amounts. Twenty-four hours after transfection the cells were diluted and selective medium (growth medium+300 μg/mL hygromycin and 1 μg/mL puromycin) was added the following day. A clonal cell line was generated by single cell deposition utilizing a FACS Vantage SE (Becton Dickinson). Growth medium was adjusted to 150 μg/mL hygromycin and 0.5 μg/mL puromycin for cell propagation.
RECOMBINANT RECEPTOR BINDING ASSAY: Cells expressing recombinant human CL receptor/RAMP1 were washed with PBS and harvested in harvest buffer containing 50 mM HEPES, 1 mM EDTA and Complete protease inhibitors (Roche). The cell suspension was disrupted with a laboratory homogenizer and centrifuged at 48,000 g to isolate membranes. The pellets were resuspended in harvest buffer plus 250 mM sucrose and stored at −70° C. For binding assays, 20 μg of membranes were incubated in 1 ml binding buffer (10 mM HEPES, pH 7.4, 5 mM MgCl2, and 0.2% BSA) for 3 hours at room temperature containing 10 pM ^125I-hCGRP (GE Healthcare) and antagonist. The assay was terminated by filtration through 96-well GFB glass fiber filter plates (PerkinElmer) that had been blocked with 0.05% polyethyleneimine. The filters were washed 3 times with ice-cold assay buffer (10 mM HEPES, pH 7.4 and 5 mM MgCl2). Scintillation fluid was added and the plates were counted on a Topeount (Packard). Non-specific binding was determined and the data analysis was carried out with the apparent dissociation constant (Ki) determined by using a non-linear least squares fitting the bound CPM data to the equation below:
[formula] Where Y is observed CPM bound, Ymax is total bound counts, Ymin is non specific bound counts, (Ymax−Ymin) is specific bound counts, % Imax is the maximum percent inhibition, % I min is the minimum percent inhibition, radiolabel is the probe, and the Kd is the apparent dissociation constant for the radioligand for the receptor as determined by Hot saturation experiments.

Row | Ki | SMILES
1 | 0.0018 µM | O=C1C(c2ccc(F)cc2)NCCN1Cc1ccc2cc3c(cc2n1)CC1(C3)C(=O)Nc2ncccc21 (stereo not drawn)
2 | 0.0042 µM and 0.0029 µM | O=C1COc2ccccc2N1Cc1ccc2cc3c(cc2n1)CC1(C3)C(=O)Nc2ncccc21 (stereo not drawn)
3 | 7.4 µM | O=C(c1ccc2cc3c(cc2n1)CC1(C3)C(=O)Nc2ncccc21)N1CCC2(CC1)OCc1ccccc12 (stereo not drawn)

same assay, conditions: membranes of HEK 293 cells expressing human CL receptor/RAMP1, 10 pM 125I-hCGRP; tested form: TFA

Row | Ki [µM] | SMILES
4 | 1.1 | CN1C(=O)NC(=O)C12Cc1cc3ccc(CN4CCC(Cc5ccccc5)CC4)nc3cc1C2 (racemic) [Example 7, (±)-2-[(4-Benzylpiperidin-1-yl)methyl]-3′-methyl-6,8-dihydro-2′H,5′H-spiro[cyclopenta[g]quinoline-7,4′-imidazolidine]-2′,5′-dione]
5 | 0.085 | CN1C(=O)NC(=O)C12Cc1cc3ccc(CN4CCC(Cn5ccnc5)CC4)nc3cc1C2 (stereo not drawn)
6 | 1.7 | CC(C)[C@H]1CN(C)CCN1Cc1ccc2cc3c(cc2n1)CC1(C3)C(=O)NC(=O)N1C (stereo partly drawn)

Values joined by “and” are separate entries in the source; they are usually repeats but may differ in a detail not shown here. Equal values may be shown once.
